Laboratory results published in patent US11725217B2, “Methods to enhance myocardial regeneration and/or repair” (Regents of the University of Minnesota, priority 2018, dated 2023).

Experiments:
regenerating newt heart = conditions: n=6
day-60 hiPSC-CMs = assay: Proliferation of day-60 hiPSC-derived cardiomyocytes (EdU, Ki67); format: cell-based, human; conditions: n=3; p<0.05
Method: The media was then changed with RPMI/B27 minus insulin and BMP4 and FGF from d1-d2. On d3, the medium was changed with RPMI/B27 minus insulin and IWP-4. The differentiated cells were maintained in RPMI/B27 with insulin media from d5-d60. […] Immunohistochemical analysis was performed as described previously.

[1] = system: isolated mouse neonatal cardiomyocytes; assay: Proliferation of cultured neonatal (P1) cardiomyocytes (cell number, EdU incorporation, Ki67, FACS); format: cell-based; conditions: CyA 5 μg/ml; n=4; p<0.05

CC1=C2C[C@H]3[C@@H](CC=C4C[C@@H](O)CC[C@@]43C)[C@@H]2CC[C@]12O[C@@H]1C[C@H](C)CN[C@H]1[C@H]2C [CyA, Cyclopamine]
reduction in cardiomyocyte proliferation (EdU incorporation assay) (regenerating newt heart; 21 dpi, p<0.05): 2 fold | reduction in cardiomyocyte proliferation (EdU incorporation assay) (regenerating newt heart; 30 dpi, p<0.01): 2 fold | proliferation of day 60 hiPSC-CMs (day-60 hiPSC-CMs): significant decrease | cardiomyocyte proliferation (EdU incorporation) [1]: significant decrease

Like-named read-outs stand apart in the source and are kept apart here.
